CDK5 p35 inh: blocks human CDK5/p35 kinase activity; Recombinant CDK5/p35, ADP-Glo luminescence, 60 min; inhibition, % at 10 µM; 330,000 compounds, 0.01% hits; AID 488839;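 active = highest replicate inhibition of at least 50% and at least 75% of replicates reaching 50%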;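 note: plate controls were DMSO neutral control for no effect and GW8510 at 10 µM for full effect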
CAL PDZ FP-1: inhibitors of human CAL PDZ peptide binding | Q9HD26 | purified CAL PDZ, TMR-peptide fluorescence polarization, 1 h | inhibition, % at 20 µM | 330,000 compounds, 0.02% hits | AID 504414;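 active = highest replicate inhibition of at least 40%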;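 note: plate controls were DMSO neutral control wells for no effect and unlabeled competitor peptide control wells for full effect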
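Test system: purified CerCALP PDZ construct; Compound dosing: one concentration, 20 µM compound; Also added: TMR-labelled reporter peptide T*-PRC34 bound in PDZ groove; Read-out: inhibition from polarization loss; Controls: unlabelled peptide and DMSO controls; Signal: FP readout, S and P plane fluorescence; Incubation: 1 h at RT.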
Dyrk1A ADPGlo: blocks rat Dyrk1A kinase activity; ADP-Glo luminescence, NFATc1 peptide; inhibition, % at 12.5 µM; 310,000 compounds, 0.43% hits; AID 504441; in the data active = inhibition above about 50%;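 note: plate controls were vehicle with enzyme for no effect and no enzyme for full effect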
dFosB activator: activators of mouse delta FosB homodimer. purified delta FosB, TAMRA-CDK5 oligo fluorescence polarization; percent of positive-control signal above neutral wells. activation, % at 25 µM. 340,000 compounds, 0.99% hits;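 active = mean activation above about 17%, with every replicate also reaching it, limit read from the data, passing the limit was not always enough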
CAL PDZ FP-2: blocks peptide binding to the human CAL PDZ domain; Q9HD26; purified CAL PDZ, TMR-peptide fluorescence polarization, 1 h; inhibition, % at 24.9 µM; 300,000 compounds, 0.92% hits; AID 602252;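 active = mean inhibition of at least 30% with at least half of replicates also reaching 30%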;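 note: 0% = DMSO neutral control and 100% = excess unlabeled competitor peptide PRC23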
Yeast UUG start-1: modulators of yeast start codon fidelity, primary screen, whole organism, S. cerevisiae, single point, plate reader; S. cerevisiae UUG-firefly luciferase reporter, luminescence/redox ratio; activity score, % at 18.7 µM; 0.13% of 350,000 active; AID 602363, 2012;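 active = replicate mean at a twofold rise or more, about +100% in these data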;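 also: firefly luciferase made from a UUG start codon reports start codon fidelity; reporter light over untreated wells divided by growth signal over untreated wells; some hits fall short of that in this replicate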
Yeast UUG start-2: modulators of start codon recognition fidelity in yeast | activation, % at 38 µM | AID 652061 | 540 tested, under 10 active | shares compounds with Yeast UUG start-1 | S. cerevisiae UUG-start firefly luciferase, luminescence, 4 h; 100% means double the DMSO signal;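 active = signal increase whose fitted curve reaches an absolute level of 40 at a concentration under 10 µM; inactive = activity opposite to the expected increase, or the rest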
Numbers without * were called inactive; i = inactive; . = not tested or not shown; ! = repeats disagree. Shown are actives, neighbours in structure and some others; about 1.7% of the full set was active somewhere.

item	CDK5 p35 inh	CAL PDZ FP-1	Molecule	Dyrk1A ADPGlo	dFosB activator	CAL PDZ FP-2	Yeast UUG start-1	Yeast UUG start-2
1	.	.	Cc1noc(C)c1NC(=O)N(C)C[C@@H]1Oc2ncc(C#CC3CCCCC3)cc2C(=O)N([C@H](C)CO)C[C@H]1C	.	.	.	-13.4	.
2	.	.	C[C@@H]1CN([C@@H](C)CO)C(=O)c2cc(C#CCc3ccccc3)cnc2O[C@H]1CN(C)CC1CCCC1	.	.	.	167.3*	i
3	.	.	C[C@@H]1CN([C@H](C)CO)C(=O)c2cc(C#CC3CCCCC3)cnc2O[C@H]1CN(C)Cc1cccnc1	.	.	.	161.5*!	i
4	.	.	C[C@H]1CN([C@@H](C)CO)C(=O)c2cc(C#CCC3CCCC3)cnc2O[C@@H]1CN(C)C(=O)CC1CC1	.	.	.	120.7*!	i
5	.	.	Cc1noc(C)c1NC(=O)N(C)C[C@H]1Oc2ncc(C#CC3CCCCC3)cc2C(=O)N([C@H](C)CO)C[C@@H]1C	.	.	.	12.4*	i
6	.	.	C[C@@H]1CN([C@H](C)CO)C(=O)c2cc(C#CC3CCCCC3)cnc2O[C@@H]1CN(C)Cc1cccnc1	.	.	.	11.3	.
7	.	.	O=C(C[C@H]1C[C@H]2c3cc(NS(=O)(=O)c4ccc(F)cc4)ccc3O[C@H]2[C@@H](CO)O1)NCc1ccncc1	.	.	.	-24.4	.
8	.	.	OC[C@@H]1[C@H](c2ccc(-c3ccc(F)cc3)cc2)[C@@H]2CN(CCC(F)(F)F)CCCCN12	.	.	.	6.7	.
9	.	.	COc1cccc(C#Cc2cnc3c(c2)C(=O)N([C@@H](C)CO)C[C@H](C)[C@@H](CN(C)C(=O)C2CCOCC2)O3)c1	.	.	.	3.0	.
10	.	.	COc1cccc(C#Cc2cnc3c(c2)C(=O)N([C@H](C)CO)C[C@H](C)[C@H](CN(C)C(=O)C2CCOCC2)O3)c1	.	.	.	125.5*	i
11	.	.	C[C@@H]1CN([C@H](C)CO)C(=O)c2cc(NC(=O)CCCN(C)C)ccc2O[C@@H](C)CCCCO[C@@H]1CN(C)S(C)(=O)=O	.	.	.	-4.1	.
12	-0.6	-0.9	COc1ccc(C(=O)NCc2nnc(SCC(=O)NC3CCCCC3)n2C)cc1	-5.6	-3.4	-2.1	348.9*	-5.9
13	-0.7	-0.2	COc1ccc(OCc2nnc(SCC(=O)NC3CC3)n2C)cc1	-1.9	1.2	.	-13.5	.
14	0.2	0.6	CCOc1ccc(C(C)=O)cc1CSc1nc(C)cc(C)n1	-3.0	-7.2	3.2	212.6*	4.2
15	0.8	-3.5	OCCNc1nc(NCc2ccccc2)c2ccccc2n1	5.3	-1.4	1.2	154.6*	-2.6
16	-0.1	1.4	CC(C)C[C@@H](CN)NC(=O)c1nc[nH]c1C(=O)N[C@@H](Cc1ccccc1)C(=O)CNC[C@H](C)NC(=O)c1nc[nH]c1C(=O)N[C@@H](C)C(=O)O	-1.9	-8.3	-4.2	-0.4	.
17	1.9	2.1	CC(C)C[C@@H](CNCC(=O)[C@H](CC(=O)O)NC(=O)c1[nH]cnc1C(=O)N[C@H](CN)CC(C)C)NC(=O)c1nc[nH]c1C(=O)N[C@@H](C)C(=O)O	-3.0	-4.2	-4.0	137.5*	1.3
18	0.7	-0.9	CC(C)C[C@@H](CNCC(=O)[C@H](C)NC(=O)c1[nH]cnc1C(=O)N[C@@H](C)CN)NC(=O)c1nc[nH]c1C(=O)N[C@@H](Cc1ccccc1)C(=O)O	-16.0	-11.7	-3.9	3.3	.
19	2.0	0.1	CC(C)C[C@@H](CN)NC(=O)c1nc[nH]c1C(=O)N[C@@H](C)C(=O)CNC[C@H](CC(C)C)NC(=O)c1nc[nH]c1C(=O)N[C@@H](CC(=O)O)C(=O)O	0.6	-3.9	-3.7	6.3	.
20	-5.2	1.2	CC(C)C[C@@H](CNCC(=O)[C@H](CC(C)C)NC(=O)c1[nH]cnc1C(=O)N[C@@H](C)CN)NC(=O)c1nc[nH]c1C(=O)N[C@@H](C)C(=O)O	-5.1	-8.9	-1.0	135.2*	14.2
21	-3.3	0.5	CC(C)C[C@@H](CN)NC(=O)c1nc[nH]c1C(=O)N[C@@H](Cc1c[nH]c2ccccc12)C(=O)CNC[C@H](C)NC(=O)c1nc[nH]c1C(=O)N[C@@H](C)C(=O)O	-2.2	-11.1	-0.2	166.5*	-0.6
22	.	.	CCC(=O)N1C[C@@H](O)COC[C@@H]2O[C@H](CC(=O)NCC3CCCCC3)CC[C@H]21	.	.	.	-3.4	.
23	.	.	C[C@@H]1CCCCO[C@@H](CN(C)S(=O)(=O)c2ccc(F)cc2)[C@@H](C)CN([C@@H](C)CO)C(=O)c2cc(NC(=O)CCC(F)(F)F)ccc2O1	.	.	.	12.9	.
24	-0.9	-1.2	COc1ccc(S(=O)(=O)NCCc2ccccc2)cc1	0.1	1.4	-4.3	10.2	-0.2
25	-0.6	-0.6	COc1ccc(CCNS(=O)(=O)c2ccc3c(c2)CCCC3)cc1OC	-2.1	-9.3	.	-4.6	.
26	-2.3	-1.0	COc1ccc(CCNS(=O)(=O)c2cccc(S(=O)(=O)N3CCCC3)c2)cc1OC	4.1	-5.2	-1.2	13.8	.
27	0.8	-2.8	COc1ccc(CCNS(=O)(=O)c2ccc3c(c2)OCCO3)cc1OC	-5.9	-11.9	-1.7	.	-3.1
28	2.7	-0.9	COc1ccc(CCNS(=O)(=O)c2cccc(C)c2)cc1OC	-7.0	-0.9	-1.5	-7.1	8.5
29	0.5	-0.7	COc1ccc(S(=O)(=O)NCCc2ccc(F)cc2)cc1	-5.2	-5.1	13.3	-7.9	.
30	.	.	COc1ccc(S(=O)(=O)NCCc2ccc(OC)c(OC)c2)cc1Cl	.	.	.	.	i

Given as tab-separated lines: 3 of the compounds above
nr	smiles	CDK5 p35 inh	CAL PDZ FP-1	Dyrk1A ADPGlo	dFosB activator	CAL PDZ FP-2	Yeast UUG start-1	Yeast UUG start-2
30	COc1ccc(S(=O)(=O)NCCc2ccc(OC)c(OC)c2)cc1Cl	.	.	.	.	.	.	i
23	C[C@@H]1CCCCO[C@@H](CN(C)S(=O)(=O)c2ccc(F)cc2)[C@@H](C)CN([C@@H](C)CO)C(=O)c2cc(NC(=O)CCC(F)(F)F)ccc2O1	.	.	.	.	.	12.9	.
20	CC(C)C[C@@H](CNCC(=O)[C@H](CC(C)C)NC(=O)c1[nH]cnc1C(=O)N[C@@H](C)CN)NC(=O)c1nc[nH]c1C(=O)N[C@@H](C)C(=O)O	-5.2	1.2	-5.1	-8.9	-1.0	135.2*	14.2

(more compounds)
item	CDK5 p35 inh	CAL PDZ FP-1	Molecule	Dyrk1A ADPGlo	dFosB activator	CAL PDZ FP-2	Yeast UUG start-1	Yeast UUG start-2
31	.	.	C[C@@H]1CCCCO[C@@H](CN(C)C(=O)Cc2ccccc2)[C@H](C)CN([C@@H](C)CO)C(=O)c2cc(NS(=O)(=O)c3ccc(Cl)cc3)ccc2O1	.	.	.	-11.7	.
32	1.0	-1.2	COc1ccc(CCNS(=O)(=O)c2cccc(F)c2)cc1OC	.	-12.2	.	0.1	1.0
33	0.6	-0.4	COc1ccc(CCNS(=O)(=O)c2cnc(Cl)c(Br)c2)cc1OC	-2.5	2.3	-1.5	-10.8	.
34	.	.	C/C=C/c1cnc2c(c1)C(=O)N([C@H](C)CO)C[C@H](C)[C@H](CN(C)C(=O)c1cnccn1)O2	.	.	.	137.3*	i
35	.	.	C[C@H](CO)N1C[C@H](C)[C@@H](CN(C)C(=O)c2ccccn2)Oc2ncc(Br)cc2C1=O	.	.	.	201.8*	i
36	.	.	O=S(=O)(c1ccccc1F)N1CC[C@@H]2[C@H]1c1cc(-c3ccc(F)cc3)ccc1N[C@@H]2CO	.	.	.	-19.0	.
37	0.2	-0.6	O=C(Nc1cnc2ccccc2c1)N1CCOCC1	1.7	-13.6	2.7	105.5*	6.8
38	2.5	-0.7	O=C(Nc1cnc2ccccc2c1)N1CCCCC1	9.7	3.3	-0.8	.	.
39	.	.	CCCNC(=O)Nc1ccc2c(c1)OC[C@H](C)N(C(=O)c1ccccc1F)C[C@@H](C)[C@@H](OC)CN(C)C2=O	.	.	.	20.5	.
40	0.5	-2.9	Cc1ccccc1-n1c(SCC(=O)c2cc(C)n(C)c2C)nnc1-c1ccncc1	-4.4	-5.9	-2.3	-18.0	10.4
41	1.2	-1.5	Cc1ccccc1-n1c(SCC(=O)N(C)C2CCS(=O)(=O)C2)nnc1-c1ccncc1 (configuration not stated)	6.1	-4.3	5.2	-17.2	.

Filtered by structure: the compounds so far with two or more sulfur atoms
item	CDK5 p35 inh	CAL PDZ FP-1	Molecule	Dyrk1A ADPGlo	dFosB activator	CAL PDZ FP-2	Yeast UUG start-1	Yeast UUG start-2
26	-2.3	-1.0	COc1ccc(CCNS(=O)(=O)c2cccc(S(=O)(=O)N3CCCC3)c2)cc1OC	4.1	-5.2	-1.2	13.8	.
41	1.2	-1.5	Cc1ccccc1-n1c(SCC(=O)N(C)C2CCS(=O)(=O)C2)nnc1-c1ccncc1 (configuration not stated)	6.1	-4.3	5.2	-17.2	.

Screening results from PubChem BioAssay.
